Test: Solubility in water of carvedilol free base and salts (shaken vials, UV-Vis)

## COc1ccccc1OCCNCC(O)COc1cccc2[nH]c3ccccc3c12 (racemic) [Carvedilol]
Table 11, 25° C., 1 hr
  Aqueous Solubility: 0.0098 mg of carvedilol free base/mL of solution
Table 13, 25° C., 24 hr
  Aqueous Solubility: 0.024 mg of Carvedilol free base/mL of solution

— US7750036B2, “Carvedilol salts, corresponding compositions, methods of delivery and/or treatment” (SB Pharmco Puerto Rico Inc., priority 2004, dated 2010)
